Biological target: T1, endogenous β-glucuronidase, pooled human liver microsomes (Homo sapiens, UniProt P08236)
T1 sequence (P08236 23-651): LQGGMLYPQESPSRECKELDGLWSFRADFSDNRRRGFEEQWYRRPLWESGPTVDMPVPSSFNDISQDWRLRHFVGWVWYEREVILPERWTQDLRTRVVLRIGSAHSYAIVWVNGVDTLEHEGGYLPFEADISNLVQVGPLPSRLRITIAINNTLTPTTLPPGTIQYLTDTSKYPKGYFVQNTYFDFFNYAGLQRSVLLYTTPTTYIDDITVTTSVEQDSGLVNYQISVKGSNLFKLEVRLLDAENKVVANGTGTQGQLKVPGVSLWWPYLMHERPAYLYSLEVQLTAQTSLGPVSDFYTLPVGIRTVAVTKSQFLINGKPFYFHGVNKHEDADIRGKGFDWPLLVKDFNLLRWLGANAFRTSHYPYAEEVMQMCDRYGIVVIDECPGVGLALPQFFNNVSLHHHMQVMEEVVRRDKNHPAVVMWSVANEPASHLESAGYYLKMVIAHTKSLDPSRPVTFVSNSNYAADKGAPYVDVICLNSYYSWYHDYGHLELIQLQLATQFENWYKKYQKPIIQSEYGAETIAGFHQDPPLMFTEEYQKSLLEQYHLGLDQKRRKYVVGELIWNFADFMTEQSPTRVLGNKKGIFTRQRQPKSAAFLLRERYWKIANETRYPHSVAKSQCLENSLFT
Test: Estradiol glucuronide hydrolysis
Settings: tissue microsomes; 10 mM saccharolactone

## O=C(O)[C@@H](O)[C@H]1OC(=O)[C@H](O)[C@H]1O [saccharolactone, D-saccharic acid 1,4-lactone]
  effect in preventing estradiol glucuronide degradation: minimal effect

— publication PMC2697495 (The Journal of pharmacy and pharmacology, 2008)
